Test results: patent EP4831199A1, “IMMUNE-STIMULATING ANTIBODY CONJUGATE, PREPARATION METHOD THEREFOR, AND USE THEREOF” (dated 2026)

Amino acid sequences for entries named in this document (tags omitted).
UniProt Q86WV6, whole entry: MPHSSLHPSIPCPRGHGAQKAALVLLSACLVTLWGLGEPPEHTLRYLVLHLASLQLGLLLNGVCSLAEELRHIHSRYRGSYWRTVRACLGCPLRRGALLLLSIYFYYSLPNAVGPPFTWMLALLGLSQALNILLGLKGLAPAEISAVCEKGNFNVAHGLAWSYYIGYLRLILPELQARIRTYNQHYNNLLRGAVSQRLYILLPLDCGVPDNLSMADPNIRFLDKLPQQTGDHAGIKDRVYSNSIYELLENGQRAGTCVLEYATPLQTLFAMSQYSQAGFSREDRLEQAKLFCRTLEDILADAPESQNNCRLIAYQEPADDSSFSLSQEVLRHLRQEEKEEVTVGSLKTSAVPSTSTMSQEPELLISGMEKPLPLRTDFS
UniProt Q3TBT3, whole entry: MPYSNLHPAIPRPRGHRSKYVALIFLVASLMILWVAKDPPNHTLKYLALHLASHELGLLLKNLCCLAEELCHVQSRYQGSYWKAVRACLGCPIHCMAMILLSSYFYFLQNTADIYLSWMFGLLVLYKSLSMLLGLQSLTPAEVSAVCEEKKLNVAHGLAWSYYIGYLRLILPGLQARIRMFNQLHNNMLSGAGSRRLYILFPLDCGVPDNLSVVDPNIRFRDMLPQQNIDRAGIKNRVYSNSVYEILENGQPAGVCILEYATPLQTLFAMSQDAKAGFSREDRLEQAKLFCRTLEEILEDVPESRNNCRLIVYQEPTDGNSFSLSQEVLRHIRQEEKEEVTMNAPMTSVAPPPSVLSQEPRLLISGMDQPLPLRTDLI

Assays:
[1] = target: STING-mediated interferon (IFN) signaling pathway (Homo sapiens, UniProt Q86WV6); test: Agonistic effect on STING-mediated IFN signal SEAP reporter gene in THP1-Blue ISG cells; conditions: for EC50: 16 h incubation, SEAP reporter, QUANTI-Blue; for Emax (OD620nm): OD620 nm value at the maximum activation effect
Experimental: In this experiment, the activity of the secreted embryonic alkaline phosphatase (SEAP) reporter gene, which is regulated by interferon (IFN) regulatory factors, in THP1-Blue™ ISG cells (InvivoGen) was measured to assess the agonistic effects of the test compounds on the STING-mediated IFN signaling pathway at the cellular level.
THP1-Blue™ ISG cells (InvivoGen) in the logarithmic growth phase were centrifuged and resuspended in a cell culture medium to a density of 2 × 10^6 cells/mL, and the cell suspension was seeded into a 96-well cell culture plate (Corning) at 50 µL/well. Stock solutions of the compounds were serially diluted with the cell culture medium to obtain 2× working concentration dilutions with concentrations of 60 µM, 7.5 µM,0.94 µM, 0.12 µM, 0.015 µM, 0.0018 µM, 0.00023 µM, 0.00003 µM, and 0 µM. The 2× working concentration dilutions of the compounds were added to the 96-well plate at 50 µL/well (the final concentration of DMSO was 1%). The culture plate was incubated in a cell incubator for 16 h. After the cell incubation, the cell culture supernatants (10 µL) were transferred to a 96-well plate, and a QUANTI-Blue (InvivoGen) solution was added at 90 µL/well. The plate was incubated at 37 °C for 3 h, and the absorbance at 620 nm (OD620 nm) was measured using a microplate reader (BMG LABTECH).
EC50 was calculated by log(agonist) vs. response -- Variable slope fitting in Graphpad Prism software. Emax was the OD620 nm value where the maximum activation effect of the present test drug was achieved.

[2] = target: cytokine mIFN-β of the STING pathway in murine Raw264.7 cells (Mus musculus, UniProt Q3TBT3); test: Expression of cytokine mIFN-β of the STING pathway in Raw264.7 cells (ELISA); conditions: amount of secreted mIFN-β at the maximum activation effect
Experimental: In this experiment, the expression of the cytokine mIFN-β of the STING signaling pathway in Raw264.7 cells (Nanjing Cobioer) was measured by ELISA to assess the agonistic effects of the test compounds on the expression of the cytokine mIFN-β of the STING pathway at the cellular level.
Raw264.7 cells (Nanjing Cobioer) in the logarithmic growth phase were centrifuged and resuspended in a cell culture medium to a density of 8 × 10^6 cells/mL, and the cell suspension was seeded into 24-well cell culture plates (Corning) at 250 µL/well. The test compounds were diluted with the cell culture medium to obtain 2× working concentration dilutions with concentrations of 200 µM, 66.67 µM, 22.22 µM, 7.41 µM, 2.47 µM, 0.82 µM, 0.27 µM, 0.09 µM, and 0 µM. The dilutions of the test compounds (250 µL) were added to the 24-well plates (the final concentration of DMSO was 1%). After the dilutions were well mixed with cells, the plates were incubated in a cell incubator for 6 h. After the cell incubation, the plates were centrifuged at 300 g for 5 min, and the supernatants were collected. 100 µL of the cell culture solution was collected using a pipette and incubated with a primary antibody and an HRP-labeled secondary antibody according to the procedures of a mouse IFN-β ELISA kit (PBL-42400-2), and color development was performed. The absorbance at a wavelength of 450 nm (OD450 nm) was measured.
EC50 was calculated by log(agonist) vs. response -- Variable slope fitting in Graphpad Prism software. Emax was the amount of secreted mIFN-β where the maximum activation effect of the present test drug was achieved.

COc1cc2sc(C(=O)N(C)CCC(=O)O)cc2cc1OCCCCOc1cc2cc(C(=O)CCC(=O)O)sc2cc1O
EC50 [1]: 626 nM
Emax (OD620nm) [1]: 1.22 OD620nm

COc1cc2sc(C(=O)N(C)CCC(=O)O)cc2cc1OCCCOc1cc2cc(C(=O)CCC(=O)O)sc2cc1O
Emax [2]: 2230 pg/mL
EC50 [1]: 68 nM
Emax (OD620nm) [1]: 1.67 OD620nm

COc1cc2sc(C(=O)N(C)CCC(=O)O)cc2cc1OCCCOc1cc2sc(C(=O)CCC(=O)O)cc2cc1O
Emax [2]: 1523 pg/mL
EC50 [1]: 348 nM
Emax (OD620nm) [1]: 1.51 OD620nm

COc1cc2cc(C(=O)N(C)CCC(=O)O)sc2cc1OCCCOc1cc2cc(C(=O)CCC(=O)O)sc2cc1O
Emax [2]: 1706 pg/mL
EC50 [1]: 79 nM
Emax (OD620nm) [1]: 1.25 OD620nm
